Assay results: patent US20050101640A1 (Recordati Ireland Limited, priority 2002, published 2005)

System: uninephrectomized anesthetized rats, renal ischemia/reperfusion hypertension
Experiment: Model of acute angiotensin-mediated renal hypertension in anesthetized rats (Example VI, with HCTZ)
Type: in vivo, Sprague-Dawley rats
Conditions: time 125 min, 5 min after reperfusion, at drug administration (reference value); mean ± S.E.M.
From the text: The animals were tracheotomized to facilitate spontaneous breathing.
Silk threads were placed around both vessels and ureter. The cavity was then covered with Vaseline oil.
Results are expressed as mean values ±S.E in the tables and as mean values ±S.E. and Δ±S.E. changes in the figures.

HR: 378.0 ± 17.2 beats/min
Compound: COC(=O)C1=C(C)NC(C)=C(C(=O)OC(C)(C)CN(C)CCC(c2ccccc2)c2ccccc2)C1c1cccc([N+](=O)[O-])c1 (stereo not shown) [lercanidipine, methyl 1,1,N-trimethyl-N-(3,3-diphenylpropyl)-2-aminoethyl 1,4-dihydro-2,6-dimethyl-4-(3-nitrophenyl)pyridine-3,5-dicarboxylate]
